Measured affinities in a library of Ab-14 light chain variants

The target is the same throughout: PDVDLGDISGINAS, from the HR2 region of SARS-CoV-2 spike.

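Phage display of a naive human antibody library on the peptide gave the parent. This is the validation round: designs drawn from the data on random variants, tested in the same kind of assay. Group labels follow the data file (Ctrl: baseline library sampled from a position-specific scoring matrix, with some repeated check sequences; Rand: our label for a block that the file lists under HC and that is probably the random mutants of the ten best first-round binders; En: ensemble of fine-tuned language models; GP: Gaussian process model; HC: hill climbing; Gen: genetic algorithm; Gibbs: Gibbs sampling; a sequence that several methods proposed may carry one label only). The scFvs were displayed on barcoded MATa yeast, the peptide on MATalpha yeast. Mating (16 h, 30 °C) was followed by selection of diploids and sequencing of their barcodes. Read counts were normalised to the haploid input and turned into Kd by a linear fit to BCL2-family pairs of known affinity, for each replicate. Mating was done six times.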

Ab-14 is the parent antibody, in scFv form: VH, then a (GGGGS)3 linker, then VL. The heavy chain is unchanged in all variants.
VH: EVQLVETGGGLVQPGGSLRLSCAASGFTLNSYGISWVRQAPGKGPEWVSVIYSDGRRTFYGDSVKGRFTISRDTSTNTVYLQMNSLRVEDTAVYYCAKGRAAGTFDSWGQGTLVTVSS
VL: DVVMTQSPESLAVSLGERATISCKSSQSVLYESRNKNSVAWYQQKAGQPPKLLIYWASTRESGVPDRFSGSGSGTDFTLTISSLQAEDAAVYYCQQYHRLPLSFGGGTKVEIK

Each variant is given by its three light chain CDRs, as the data file delimits them; those of the parent are KSSQSVLYESRNKNSVA, WASTRES, QQYHRLPLS. Values are apparent Kd, the geometric mean of the replicates that gave a signal; lower means stronger binding. "not detected" marks a missing value. The strain was present, yet no cells mated with the target were sequenced in any replicate, which points to weak or no binding. Empty control strains, which show no peptide, gave a signal in 4% of pairings with all light chain designs; the median was 430 nM and 95% of these signals were weaker than 38 nM. No background was subtracted. The authors averaged sequences with at least three values out of six and counted those with two or fewer as poor binders. Of ten entries with the parent sequence, four were seen in most replicates (averages 2.2 nM to 240 nM), three in one and three in none, so single entries are noisy. The range of this assay differs from that of the first round, and the authors advise against merging the two.

CDR-L1,CDR-L2,CDR-L3,group,Kd,seen in
KVYQGVDYEDRNKNSVA,HASQRES,QQYHRLPLS,GP_Gibbs,520 pM,6 of 6
NFPQEAMYESHFKNNVA,QTSTREP,QQYDHLPLS,En_HC,3.2 nM,6 of 6
KSSQSVDYESRNTNSVA,EASTRES,QQYHRLPLS,Ctrl,27 nM,6 of 6
KLYQSDLYESRNKNSVA,HASTRES,QQYHRLPLS,GP_Gen,660 pM,6 of 6
IVSQLMLWGYHAKNSIA,EAEMRLN,QQYHRLPLF,En_Gen,not detected,0 of 6
KISQVTEYESRNKNNVA,DLTTRGS,QDYHRLPLS,En_HC,660 pM,6 of 6
IVSQLMLIGMHAKNSIA,EASTRNN,QQYHRLPLI,En_Gen,50 nM,4 of 6
KMSQSVLYESRNKNSVA,WASTRES,QQYHHLPLS,Ctrl,4.6 nM,6 of 6
MLGNQPTSFRNNKNAIA,DDEARTS,QQYDRLPLS,En_Gibbs,4.3 nM,5 of 6
KVSWSWLYESRNWNSVA,NASLRES,QQYHRLPLS,GP_Gibbs,2.1 nM,6 of 6
QLSGITGHLSAIKNNVA,EMETREN,QQYERLPLS,En_Gen,1.1 nM,6 of 6
KFSQSHLYESRNKNSVA,DASTRES,QQYHRLPLS,GP_Gen,290 pM,6 of 6
MISQLMNMGQFAINSVA,QASERCN,QQYDRLPLM,En_Gen,49 nM,6 of 6
KLQQSELYESRNKNSVA,NASQRLS,QQYHRLPLS,GP_Gen,580 pM,6 of 6
KLSQSVLYESRAKNSVA,EASTRES,QQYHRLPLS,GP_Gen,260 pM,6 of 6
KSSISQLYESRNKGSVA,AASTRES,QQYHRLPLS,GP_HC,1.8 nM,6 of 6
KSGQGVLYESRNKNSVA,GASTPES,QQYHRLPLS,Rand,3.7 nM,6 of 6
KMSMSVLYEDRHQNSVA,NASQRLD,QQYHRLPLS,GP_Gibbs,1.9 nM,6 of 6
KVSQSAPMESRNANSVA,NASTREE,QQYHRLPLS,GP_Gibbs,960 pM,6 of 6
HSNPWVLYESLNKNSVQ,NASTRES,QQYHRLPLS,Rand,120 nM,6 of 6
NLSWKQIMQNMDSMAVA,QTEQREA,QQYARLPLS,En_Gibbs,3.3 nM,6 of 6
KSRQSVLYEYMNKNSVA,AASTRES,QQYHRLPLS,Ctrl,4.6 nM,6 of 6
KLSQSVLYEDRMKNSVA,NASQRES,QQYHRLPLS,GP_Gen,4.5 nM,6 of 6
KVSQLGLYESRNKNSVA,NASTRES,QQYHRLPLS,GP_Gen,700 pM,6 of 6
KSSQSWLYESRNKNSVA,GASKRES,QQYHRLPLS,GP_HC,1.0 nM,6 of 6
KLENSNLYESRNDNSVA,NASTRYS,QQYHRLPLS,GP_Gibbs,2.3 nM,6 of 6
KSNQSVLYESNFKNSVA,SASTRES,QQYHRLPLS,Ctrl,18 nM,6 of 6
KLSQSVLYESRNKNSVA,EASTREL,QQYHRLPLS,GP_Gen,580 pM,6 of 6
KISMLINQTFEQSNNVA,EMVTREK,QQYNRLPLS,En_Gen,17 nM,6 of 6
HITDLMYFGNEGEKNIA,DKNISVM,QQYFRLPLS,En_Gibbs,2.4 nM,6 of 6
KSSQSVLYESRNKNSVA,NASTRPS,QQYHRLPLS,Ctrl,3.9 nM,6 of 6
KLSQVTNSEHKVKNSIA,EMVTREK,QQYDRLPLE,En_HC,9.5 nM,6 of 6
KLSGSQLYESRNKNSVA,EASTRES,QQYHRLPLS,GP_Gen,440 pM,6 of 6
KLSQSVLYESRNKNAVA,DASTRES,QMYHWLPLS,GP_HC,5.8 nM,6 of 6
SLAYTQHFGQTGEKAIA,EVATRCQ,QQYFRLPLG,En_Gibbs,6.4 nM,6 of 6
KVSQSQLYESRNKNSVA,NASYRES,QQYHRLPLS,GP_Gen,1.1 nM,6 of 6
RITILSDYYLENRSAIA,ETSLKAH,QQYFMLPLT,En_Gibbs,38 nM,6 of 6
KVSPSVMGWMRNKNSVA,NASTRRS,QQYHRLPLS,GP_Gibbs,19 nM,6 of 6
KLQQSMLYESRWWNSVA,DASVRCD,QQYHRLPLS,GP_Gibbs,3.1 nM,6 of 6
KYQQSELTESRNKNSVA,NASTRES,QQYHQLPLS,GP_Gibbs,4.3 nM,6 of 6
TLGAATLEESRNKNSVA,EMSLREN,QSYNRLPLS,En_HC,7.4 nM,6 of 6
KYYPSYLYESRNKNSVA,HASTRES,QQYHRLPLS,GP_HC,3.0 nM,6 of 6
HSSCSVLYESRNKNSVA,NASTRES,QQYHRLPLN,Rand,6.0 nM,6 of 6
KSSQSVLEESRNKNSHA,WASTRES,QQYHRLPLS,Ctrl,not detected,0 of 6
MLSEVLHMLGVKKNSIA,DLVIRAN,QQYHRLPLF,En_Gen,13 nM,2 of 6
KSSQPVWYESRNKNSVA,SASTTVS,QQYHRLPLS,Ctrl,63 nM,6 of 6
KITGMWTFESKNKNNIA,EESTRED,QSYHRLPLS,En_HC,3.1 nM,6 of 6
KSSQSVLYESRNGNSVA,WASTRES,YQYHRLPLS,Ctrl,not detected,0 of 6
IFSQSVLMGNMKRNSVA,QASTRFN,QQYDRLPLI,En_HC,6.3 nM,6 of 6
KSSQSELFESRNKNSVA,NASTRES,QQYHRLPLS,GP_HC,2.3 nM,6 of 6
IISQSTLGEYHNKNSVA,QTSERGS,QQYDRLPLS,En_HC,3.8 nM,6 of 6
QFNLALENSGHRMNNIA,EETMKPD,QQYVRLPLQ,En_Gibbs,28 nM,6 of 6
KSSQAVLYEDRNGNSVA,WASTRES,QQYHRLYLH,Ctrl,not detected,0 of 6
KFSQQMLYESRNKNNVA,EASHRES,QQYHRLPLS,GP_Gibbs,350 pM,6 of 6
KSSQSVLLESRNKNSVA,WASTREL,QQYHRLPLS,Ctrl,60 nM,3 of 6
KLTATMRFEQKASNNIA,EVTNRIK,QQYYRLPLA,En_Gen,12 nM,6 of 6
KLSGSTLYDSQNKNSVA,WASTRES,QQYKRLPLS,GP_HC,820 pM,6 of 6
KISQMVRVGSTVSNSIA,EEVTRAK,QQYHRLPLF,En_Gen,27 nM,6 of 6
MFEEYQSEGGANNNNVA,DHNCGIR,QQYYRLPLT,En_Gibbs,38 nM,1 of 6
SISGFMKTLSSHKNNVA,DMTNRGD,QQYDRLPLS,En_Gen,3.7 nM,6 of 6
KLETSVNGESRNKNAVA,SASQREQ,QQYHRLPLS,GP_Gibbs,700 pM,6 of 6
KSSQSVLHESREKNSIA,WASTRES,SQYHRLPLS,Ctrl,150 nM,1 of 6
KSSSSYLYESMNKNSVA,NASTRES,QQYHRLPLS,GP_HC,2.1 nM,6 of 6
KSSQEVLYESRNKNSVA,QASTRES,QQYGRLPLG,Ctrl,190 nM,5 of 6
KSVQSVLYESRNKNSMA,WASTRES,QQYHRLPLV,Ctrl,not detected,0 of 6
KISQLVNFLGKMKNSVA,QMSTREE,QQYDRLPLS,En_HC,3.6 nM,6 of 6
KLSATYRYEMQNKNSIA,EMTTRES,QCYHRLPLS,En_HC,390 nM,4 of 6
SISYLDNRGSQGHNNIA,EGSQRAE,QQYIRLPLN,En_Gibbs,1.2 nM,6 of 6
HSSPSVLYESMNKNSVA,NASTRES,QQYHRLPLS,Rand,1.5 nM,6 of 6

Repeated from above, the 11 best binders with a signal in all replicates:

CDR-L1,CDR-L2,CDR-L3,group,Kd,seen in
KLSQSVLYESRAKNSVA,EASTRES,QQYHRLPLS,GP_Gen,260 pM,6 of 6
KFSQSHLYESRNKNSVA,DASTRES,QQYHRLPLS,GP_Gen,290 pM,6 of 6
KFSQQMLYESRNKNNVA,EASHRES,QQYHRLPLS,GP_Gibbs,350 pM,6 of 6
KLSGSQLYESRNKNSVA,EASTRES,QQYHRLPLS,GP_Gen,440 pM,6 of 6
KVYQGVDYEDRNKNSVA,HASQRES,QQYHRLPLS,GP_Gibbs,520 pM,6 of 6
KLSQSVLYESRNKNSVA,EASTREL,QQYHRLPLS,GP_Gen,580 pM,6 of 6
KLQQSELYESRNKNSVA,NASQRLS,QQYHRLPLS,GP_Gen,580 pM,6 of 6
KLYQSDLYESRNKNSVA,HASTRES,QQYHRLPLS,GP_Gen,660 pM,6 of 6
KISQVTEYESRNKNNVA,DLTTRGS,QDYHRLPLS,En_HC,660 pM,6 of 6
KVSQLGLYESRNKNSVA,NASTRES,QQYHRLPLS,GP_Gen,700 pM,6 of 6
KLETSVNGESRNKNAVA,SASQREQ,QQYHRLPLS,GP_Gibbs,700 pM,6 of 6

Reference: Li et al. 2023, doi:10.1038/s41467-023-39022-2. File: FLAb, binding data.